PubChem BioAssay AID431 (Sanford-Burnham Center for Chemical Genomics, 2006)
The entries are a selection whose mix differs from that of the whole data set. Potency and affinity values are given separately. Some results for these compounds are left out of this collection, so the calls shown say nothing about other tests. Active and inactive are the calls of the source.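 How the source made its calls: active means compounds whose percent cytotoxicity in the single-dose primary screen, scaled between solvent and toxic-drug controls, exceeds 50; inactive means the rest.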

Assay: cytotoxicity in KRAS-transformed pancreatic duct cells, primary screen, cell-based, fluorescence, HTS (AID 431);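 further: 0% = DMSO solvent wells and 100% = doxorubicin-treated wells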
Details: HPDE-C7K KRASV12 cells, Alamar Blue viability, 48 h; at 10 µM; stronger effect = higher value

| SMILES | cytotoxicity |
| --- | --- |
| O=C(OC1CN2CCC1CC2)C(CO)(c1ccccc1)c1ccccc1 (configuration not stated) | inactive: -10.9% |
| CN(C)c1cccc(C(=O)NCC2(N(C)C)CCCCC2)c1 | inactive: -7% |
